These are literature values, as cited in patent US20230114177A1, “NOVEL DEUTERIUM-SUBSTITUTED PYRIMIDINE DERIVATIVE AND PHARMACEUTICAL COMPOSITION COMPRISING SAME” (ONCOBIX CO., LTD., priority 2019, published 2023).

SMILES strings stand for the structures.

This data set deals with ALK-positive non-small cell lung cancer. As to conditions: clinical study, cited from earlier work.

For `C[C@@H](Oc1cc(-c2cnn(C3CCNCC3)c2)cnc1N)c1c(Cl)ccc(F)c1Cl` [crizotinib], the “most common adverse events reported” value is recorded as “visual field abnormality, diarrhea, vomiting, edema, nausea”. Further, the tumor response rate entry (patients with mainly adenocarcinoma tissue-type lung cancer) was “about 65%”. In addition, the progression-free survival period (3 months in the chemotherapy group) is reported as 7.7 months.
